An excerpt weighted towards active compounds, which were near 3.7% of everything screened.
ClpP mod – qHTS Assay for Activators of ClpP; ATP-dependent Clp protease proteolytic subunit (Bacillus subtilis (strain 168)), P80244; purified B. subtilis ClpP, FRET peptide cleavage, 20 min; Potency, µM (highest dose often 57.5 µM), for inactives: top-dose activity change, negative = active; 340,000 tested, 1.9% active; active = well fitted falling curve with a large enough effect; inconclusive = small, poorly fitted or top-dose-only effect; inactive = no such curve, though single readings can be large or run the other way; note: potency is the fitted concentration of half-maximal effect; the source files actives as falling curves though it sought activators and does not explain the sign; nearly all actives have a fitted effect of over 65% in size
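Buffer: 100 mM Tris/HCl pH8, 100 mM KCl, 0.05% low protease BSA, 2.5% glycerol, 0.01% Tween-20. ClpP 10 microg/mL final; 20 min RT; delta FRET normalized to ADEP and DMSO controls.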
Nrf2 inh – Nrf2 pathway inhibition; A549 ARE-Fluc reporter, luciferase luminescence, 18-24 h; Potency, µM (top dose mostly 46 µM), inactives show at the highest dose activity change, negative = inhibition, most hits filed as inhibitors; 360,000 tested, 2.1% active; AID 504444; note: potency is the fitted concentration of half-maximal effect; % is set by controls: 0 for no effect and ±100 for the full control effect; nearly all actives have a fitted effect of over 60% in size
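Concentration-response testing used A549 ARE_Fluc cells at 5000 cells/well. Following an 18-24 h compound incubation, viability was read by fluorescence (Ex 405/Em 525) and luciferase output by luminescence.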
miR-21 reporter – raises the signal of a miR-21 reporter; HeLa miR-21 FLuc reporter, luciferase, 48 h; Potency, µM (highest dose often 38.3 µM), inactives show at the highest dose reporter change, positive = more light; 340,000 tested, under 10 active; active = well fitted rising curve with a large enough effect; inconclusive = small, poorly fitted or top-dose-only effect; inactive = no such curve, though single readings can be large or run the other way;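 note: % of control where 0% means no effect; miR-21 action dims this reporter so a rising signal means less miR-21 action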
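Luminescence from a firefly luciferase reporter carrying a miR-21 binding site downstream, stably expressed under a CMV promoter in HeLa cells that make miR-21 endogenously, reports miRNA modulation after 48 h compound exposure up to approximately 40uM final.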
A549 tox – A549 cytotoxicity, counter-screen for Nrf2 inhibitors | AID 504648 | 390,000 tested, 0.16% active | Potency, µM (top dose mostly 46 µM), inactives show top-dose activity change, negative = cytotoxicity, most hits filed as inhibitors | A549 ARE-Fluc cells, CellTiter-Fluor viability, 18-24 h; note: potency is the fitted concentration of half-maximal effect; % is set by controls: 0 for no effect and ±100 for the full control effect
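A549 ARE-Fluc cells in 5% FBS OPTI-MEM, 5000 cells/well, rested 2 h then exposed to compounds in concentration-response for 18-24 h at 37 °C. Viability by CellTiter-Fluor fluorescence (Ex 405/Em 525) after 30 min; luciferase luminescence (BugLite, 15 min, RT) read afterwards.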
Nrf2 ARE act – activates Nrf2 signaling; AREc32 ARE-luciferase reporter (MCF7-derived line), luminescence, 24 h; Potency, µM (titrated, usually from 46.1 µM), without a hit: top-dose activation, usual class: activators; 410,000 tested, 0.31% active; AID 624171; note: potency is the fitted concentration of half-maximal effect; % of control where 0% means no effect; nearly all actives have a fitted effect of over 65% in size
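Each well held 1000 AREc32 cells, which were incubated with compound for 24 hr at 37 deg C after overnight attachment, and ARE reporter activity was quantified by firefly luciferase luminescence.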
p53 reactivator – mutant p53 re-activation in reporter cells. H1299 p53-A138V BP100-luciferase reporter, luminescence, 24 h. Potency, µM (highest dose often 92.2 µM), for the others: at the highest dose activity change, positive = activation, hits mostly activators. 320,000 tested, 0.063% active. AID 504706; note: potency is the fitted concentration of half-maximal effect; % of control where 0% means no effect; nearly all actives have a fitted effect of over 45% in size
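H1299 (p53-null), stable ts p53-A138V + BP100-Luc; 1000 cells/well, Opti-MEM/10% FBS; cpd 4 pt, 1:5; 24 h, 37 deg C, 5% CO2; detection reagent 10 min RT; luminescence.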
An asterisk follows results filed as active; [ ] = dose if it differs, or a comment. Unless noted, calls come from the whole dose curve; as a rule, active = well fitted curve in the direction sought with a large enough effect; inconclusive = small, poorly fitted or top-dose-only effect, or another doubt; inactive = no such curve, though single readings can be large; an effect the other way counts as inactive or inconclusive.

For COc1cccc(CN(C)CC(=O)Nc2ccccc2C(=O)Nc2ccccc2)c1OC the results were ClpP mod 0%, Nrf2 inh 23µM*, miR-21 reporter 8%, A549 tox inconclusive, Nrf2 ARE act 3% and p53 reactivator -3%.
O=C(O)c1ccc(N/N=C/C=C/c2ccc([N+](=O)[O-])o2)cc1 was read as Nrf2 inh inconclusive, miR-21 reporter -30%, A549 tox inconclusive, Nrf2 ARE act 14µM* and p53 reactivator 18%.
For O=C(N/N=C/c1ccc([N+](=O)[O-])o1)C(=O)Nc1ccc(C(=O)O)cc1 the results were ClpP mod 1%, Nrf2 inh 5%, miR-21 reporter 2%, A549 tox -7%, Nrf2 ARE act 0% and p53 reactivator 4%.
Screening COC(=O)c1cc(-c2c(C)oc3cc(O)ccc3c2=O)c(C)o1 returned ClpP mod 25µM*, Nrf2 inh -14%, miR-21 reporter -7%, A549 tox -11%[1.84 µM], Nrf2 ARE act 0% and p53 reactivator -5%.
For Cc1oc2cc(O)ccc2c(=O)c1Oc1ccccc1 the results were ClpP mod 11µM*, Nrf2 inh 35%, miR-21 reporter -11%, A549 tox -2%, Nrf2 ARE act 4% and p53 reactivator 7%.
Cc1noc(/C=C/c2ccccc2F)c1S(=O)(=O)N1CCC(C(=O)NCC(C)c2ccccc2)CC1 (stereo not given) was read as ClpP mod 143%, miR-21 reporter 5%, A549 tox 1% and Nrf2 ARE act 0%.
Cc1cccc(-c2noc(CN(C(=O)C34CC5CC(CC(C5)C3)C4)C(C)C)n2)c1 was read as ClpP mod 32µM*, Nrf2 inh 7%, miR-21 reporter -8%, A549 tox 0%, Nrf2 ARE act 2% and p53 reactivator 2%.
For O=C(Nc1cccnc1)c1cc2c(ccc3ccccc32)o1 the results were ClpP mod 25µM*, Nrf2 inh inconclusive, miR-21 reporter -51%, A549 tox 28% and Nrf2 ARE act 3%.
Screening COC(=O)c1cc2c(ccc3ccccc32)oc1=O returned ClpP mod 4%, Nrf2 inh -14%, A549 tox -6% and Nrf2 ARE act 3%.
NNC(=O)c1cc2c(ccc3ccccc32)o1 was read as Nrf2 inh 2%, miR-21 reporter -7%, A549 tox 0%, Nrf2 ARE act 2% and p53 reactivator 8%.
O=C(O)c1cc2c(ccc3ccccc32)o1 was read as ClpP mod 28µM*, Nrf2 inh -18%, miR-21 reporter -6%, A549 tox -1%, Nrf2 ARE act 0% and p53 reactivator 22%.
`CN1CCN(C(=O)c2cc3c(ccc4ccccc43)oc2=O)CC1` gave ClpP mod 13µM*, Nrf2 inh inconclusive, miR-21 reporter -12%, A549 tox -10%, Nrf2 ARE act 0% and p53 reactivator 0%.
For Oc1cccc2ccc(/C=C/c3ccccc3Cl)nc12 the results were ClpP mod -1%, Nrf2 inh 28%, miR-21 reporter -2%, A549 tox 12%, Nrf2 ARE act inconclusive and p53 reactivator inconclusive.
Screening Nc1nccc(/C=C/c2c(F)cccc2Cl)n1 returned Nrf2 inh inconclusive, miR-21 reporter -50%, A549 tox 6%, Nrf2 ARE act 10µM* and p53 reactivator -2%.
`Oc1cccc2ccc(/C=C/c3c(F)cccc3Cl)nc12` gave Nrf2 inh 30%, miR-21 reporter -29%, A549 tox 1%, Nrf2 ARE act 1µM* and p53 reactivator 10%.
Screening Cc1ccccc1-c1nc(CS(=O)(=O)CC(=O)NCCCc2ccccc2)c(C)o1 returned ClpP mod -2%, Nrf2 inh 21µM*, miR-21 reporter 14%, A549 tox inconclusive and Nrf2 ARE act 0%.
For CN=c1scc(-c2ccccc2F)n1/N=C/c1ccc[nH]1 the results were Nrf2 inh inconclusive, miR-21 reporter inconclusive, A549 tox 1%, Nrf2 ARE act -3% and p53 reactivator -10%.
For CN=c1scc(-c2ccccc2F)n1/N=C/c1ccc(O)c(O)c1O the results were ClpP mod 0%, Nrf2 inh 12µM*, miR-21 reporter 16%, A549 tox inconclusive, Nrf2 ARE act 17% and p53 reactivator 11%.
COc1ccccc1N1CCN(CCCNC(=O)c2nnc(Cc3c(F)cccc3Cl)o2)CC1 was read as ClpP mod -2%, Nrf2 inh -14%, miR-21 reporter 0%, A549 tox -9% and Nrf2 ARE act 1%.

Part of the list above in order of count of non-hydrogen atoms, rising:
Screening Nc1nccc(/C=C/c2c(F)cccc2Cl)n1 returned Nrf2 inh inconclusive, miR-21 reporter -50%, A549 tox 6%, Nrf2 ARE act 10µM* and p53 reactivator -2%.
For Oc1cccc2ccc(/C=C/c3ccccc3Cl)nc12 the results were ClpP mod -1%, Nrf2 inh 28%, miR-21 reporter -2%, A549 tox 12%, Nrf2 ARE act inconclusive and p53 reactivator inconclusive.
For CN=c1scc(-c2ccccc2F)n1/N=C/c1ccc[nH]1 the results were Nrf2 inh inconclusive, miR-21 reporter inconclusive, A549 tox 1%, Nrf2 ARE act -3% and p53 reactivator -10%.
